Laboratory results: publication PMC7359870 (Journal of the American Chemical Society, 2020)

Target: γ-secretase complex (UniProt P49768)

IC50 of inhibition of γ-secretase (series 10–16, Table S2): 0.5 nM
Substance: HPI-TSA inhibitor 16 (peptide)
